Results on one molecule are retold here after US20220218752A1 (University of Washington, published 2022).

In the experiment the target is T1, Key_EGFR (Original Key targeted to EGFR by DARPin).
T1 construct: The Key alone; The His/TEV tag is marked optional; also called EGFR-targeted Key
T1 chain: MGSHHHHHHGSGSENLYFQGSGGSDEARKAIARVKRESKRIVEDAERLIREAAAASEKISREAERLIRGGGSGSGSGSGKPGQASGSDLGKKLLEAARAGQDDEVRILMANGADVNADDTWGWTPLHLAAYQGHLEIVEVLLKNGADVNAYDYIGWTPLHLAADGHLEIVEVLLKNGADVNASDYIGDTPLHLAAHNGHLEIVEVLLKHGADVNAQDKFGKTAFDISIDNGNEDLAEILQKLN
Description: confocal microscopy; HEK293T/EGFR cells carry the Key without the Cage. As to the method:
Co-localization dependent activation was also observed at the sub-cellular level by confocal microscopy. CL_CHKE recruited Bcl2-AF680 to the plasma membrane of HEK293T/Her2/EGFR cells but not HEK293T/Her2 or HEK293T/EGFR (FIG. 2c).
HEK293T cells were grown in ibidi μ-slide 8 well coverslips for 1 day at 37° C. and 5% CO2 (ibidi 80826). Cell staining and incubation were performed in DMEM, high glucose, HEPES, no phenol red (Gibco 21063029). Cell nuclei were stained with Invitrogen Molecular Probes NucBlue™ Live ReadyProbes™ Reagent according to manufacturer's instructions (Invitrogen R37605). Cells were incubated in culture medium containing 1% BSA, 20 nM Her2_Cage-I269S, 20 nM Key_EGFR, and 50 nM Bcl2-AF680 for 1-2 hours at 37° C. and 5% CO₂. Images were acquired on a Leica SP8X confocal microscope and analyzed in Fiji.

B1: Bcl2-AF680 (other)
chain: MGSHHHHHHGSGSENLYFQGSGGSAHAGRTGYDNREIVMKYIHYKLSQRGYEWDAGDVGAAPPGAAPAPGIFSSQPGHTPHPAASRDPVARTSPLQTPAAPGAAAGPALSPVPPVVHLTLRQAGDDFSRRYRRDFAEMSSQLHLTPFTARGRFATVVEELFRDGVNWGRIVAFFEFGGVMCVESVNREMSPLVDNIALWMTEYLNRHLHTWIQDNGGWDAFVELYGPSMRGC
modifications: Alexa Fluor 680 C2 Maleimide on the C-terminal cysteine
notes: It was used for confocal microscopy; also called Bcl2-cys labeled with Alexa Fluor 680; Effector
For B1, the binding result was “no binding”.
